Literature values, collected in patent US20230091671A1 (priority 2020, published 2023).
Counter-ions that a name gives are not always drawn.

Conditions: in vivo; cited from earlier work

In the case of `CCN1CC(CCN2CCOCC2)C(c2ccccc2)(c2ccccc2)C1=O` (stereo not shown) [Doxapram hydrochloride, 1-ethyl-4-[2-(4-morpholinyl)ethyl]-3,3-diphenyl-2-pyrrolidinone monohydrochloride, monohydrate], the “metabolism (enzymes / pathway)” value is given as “ring hydroxylation to ketodoxapram”.
